Test results from ChEMBL document CHEMBL1155976, “Synthesis and preliminary pharmacological evaluation of imidazo[2,1-f]purine-2,4-dione derivatives” (Eur J Med Chem, 2009).

Key:
Mus musculus [1] = species: Mus musculus; settings: Swiss albino, 5 mg/kg
Mus musculus [2] = species: Mus musculus; settings: Swiss albino, 0.1 mg/kg
Mus musculus [3] = species: Mus musculus; settings: Swiss albino, 5 mg/kg; remark: listed apart in the source
Mus musculus [4] = species: Mus musculus; settings: Swiss albino, 0.1 mg/kg; remark: listed apart in the source
Mus musculus [5] = species: Mus musculus; settings: Swiss albino, 0.1 mg/kg; remark: listed apart in the source
Mus musculus [6] = species: Mus musculus; settings: Swiss albino, 0.1 mg/kg; remark: listed apart in the source

CCCN(CCC)C1CCc2cccc(O)c2C1 (stereo unspecified)
deltaT (Mus musculus [1]): -0.1 °C

COc1ccccc1N1CCN(CCN(C(=O)C2CCCCC2)c2ccccn2)CC1
deltaT (Mus musculus [2]): 0.2 °C
deltaT (Mus musculus [3]): 0.1 °C
deltaT (Mus musculus [4]): 0.2 °C
deltaT (Mus musculus [5]): 0.2 °C
deltaT (Mus musculus [6]): 0.1 °C
